What was measured:
laminin (LM) [1] = molecular target: laminin (LM) (UniProt P02469)
laminin (LM) [2] = molecular target: laminin (LM) (UniProt P02469); assay: ELISA; wells coated with 1 μg LM; increasing concentrations of His-tagged r37LRP in PBS, 1 mg/ml BSA, 1 h at 37°C; detected with Penta-His HRP; BSA-coated wells subtracted; one-site binding hyperbola

adhesion of LR-293 cells (67LR overexpressing) for 1 hour to wells coated with increasing concentrations of LM, without inhibitor; Kd from the binding curve (laminin (LM) [1]) [nM]	Kd (laminin (LM) [2]) [nM]	Substance
14.5		67 kDa laminin receptor (67LR) on the surface of LR-293 cells (HEK-293 stably transfected with human 37LRP cDNA with C-terminal T7 tag and poly-histidine stretch) (from UniProt P08865 1-295)
	1900	human recombinant soluble 37LRP (r37LRP), His-tagged (from UniProt P08865 1-295) (natural protein)

From article PMC4627239, “Discovery of new small molecules inhibiting 67 kDa laminin receptor interaction with laminin and cancer cell invasion” (Oncotarget, 2015)
